log10 OH rate constant (cm³/molecule/s) data for 1 compound are collected here from the OPERA property sets (Mansouri et al. 2018).

Molecules are shown by their SMILES.

`CCCO[N+](=O)[O-]`: the log10 OH rate constant (cm³/molecule/s) is -12.1.
